Data as given in patent US6583179B2, “Substituted aminoalkylamide derivatives as antagonists of follicle stimulating hormone” (Ortho-McNeil Pharmaceutical, Inc., priority 1999, dated 2003).

Chains of the proteins cited; added tags and fusions are not shown. Residues count along the entry.
UniProt P23945, 18-695 limits assumed: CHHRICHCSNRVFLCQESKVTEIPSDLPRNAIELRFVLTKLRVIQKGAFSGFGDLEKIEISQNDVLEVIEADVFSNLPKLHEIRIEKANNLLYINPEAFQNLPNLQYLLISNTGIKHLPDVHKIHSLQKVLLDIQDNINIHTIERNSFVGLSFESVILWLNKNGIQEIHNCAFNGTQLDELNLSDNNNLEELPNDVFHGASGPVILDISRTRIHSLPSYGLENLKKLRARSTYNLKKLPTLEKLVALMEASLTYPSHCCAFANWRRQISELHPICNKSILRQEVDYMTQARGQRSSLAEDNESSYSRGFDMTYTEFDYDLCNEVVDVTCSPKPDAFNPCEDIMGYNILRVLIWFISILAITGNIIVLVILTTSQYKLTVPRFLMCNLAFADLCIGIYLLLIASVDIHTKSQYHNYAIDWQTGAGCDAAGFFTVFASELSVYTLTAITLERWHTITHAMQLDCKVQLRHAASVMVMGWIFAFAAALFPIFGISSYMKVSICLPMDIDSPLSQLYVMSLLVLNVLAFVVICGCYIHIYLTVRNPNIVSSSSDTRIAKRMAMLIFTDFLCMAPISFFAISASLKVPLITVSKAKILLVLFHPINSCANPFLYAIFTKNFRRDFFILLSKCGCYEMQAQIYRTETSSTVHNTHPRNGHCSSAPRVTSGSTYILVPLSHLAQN

Molecular target: human FSH receptor (Homo sapiens, UniProt P23945)
Assay: hFSHR CHO cAMP assay (rhFSHR-cLUC cells, FSH-stimulated cAMP, radioimmunoassay)
Conditions: read-out: EC50 hFSHR CHO cAMP; inhibition of cAMP produced by EC70 dose of FSH (4.85 nM); maximum concentration 50 μM
Source text: Minimum Essential Medium-Alpha (MEM-alpha), fetal bovine serum (FBS), penicillin, streptomycin, geneticin, trypsin-EDTA, Hanks' Balanced Salt Solution (no Calcium chloride, Magnesium chloride, Magnesium sulfate, or phenol red; Ca-Mg free HBSS) were purchased from Gibco BRL (Gaithersburg, Md.). The cells used for the FSH bioassay (rhFSHR-cLUC) were Chinese Hamster Ovary cells (K-1; ATCC) stably transformed with human FSH receptor (pSVK-FSHr) and a cAMP luciferase reporter gene (responsive CGα-180LUC). Follicle Stimulating Hormone (Metrodin; Fertinex) was purchased from Serono, Ltd. (Norwell, Mass.). […]
Forty-eight hours after the cells were plated in sterile 96-well culture plates (Corning, Corning, N.Y.) the spent media was removed and 50 μl assay media (modified growth media with 2% HIFBS) containing 2 mM IBMX (3-isobutyl-1-methyl-xanthine) was added to the cells. […] The amount of cAMP produced was measured by radioimmunoassay in a FlashPlate (DuPont, Boston, Mass.). […] The FlashPlates were sealed, incubated overnight @ room temperature, and counted in a Packard TopCount (Packard Instrument Co., Meriden, Conn.). The cAMP radioimmunoassay results were calculated using DPM conversion and log-logit transformation of % binding (Excel program). […]
EC50 values were calculated from an analysis of the concentration-inhibition data using a linear analysis of the data transformed to a log-logit format.

C[C@@H](CN(CC(=O)NCc1ccc(CN)cc1)S(=O)(=O)c1ccc(-c2cccc3c2sc2ccccc23)cc1)c1ccccc1
EC50: > 50 µM
